Data on 1 molecule can be found in patent US7166588B2 (priority 2000, dated 2007).

Chains of the proteins cited; added tags and fusions are not shown. Residues count along the entry.
UniProt P22303, 32-614 limits assumed: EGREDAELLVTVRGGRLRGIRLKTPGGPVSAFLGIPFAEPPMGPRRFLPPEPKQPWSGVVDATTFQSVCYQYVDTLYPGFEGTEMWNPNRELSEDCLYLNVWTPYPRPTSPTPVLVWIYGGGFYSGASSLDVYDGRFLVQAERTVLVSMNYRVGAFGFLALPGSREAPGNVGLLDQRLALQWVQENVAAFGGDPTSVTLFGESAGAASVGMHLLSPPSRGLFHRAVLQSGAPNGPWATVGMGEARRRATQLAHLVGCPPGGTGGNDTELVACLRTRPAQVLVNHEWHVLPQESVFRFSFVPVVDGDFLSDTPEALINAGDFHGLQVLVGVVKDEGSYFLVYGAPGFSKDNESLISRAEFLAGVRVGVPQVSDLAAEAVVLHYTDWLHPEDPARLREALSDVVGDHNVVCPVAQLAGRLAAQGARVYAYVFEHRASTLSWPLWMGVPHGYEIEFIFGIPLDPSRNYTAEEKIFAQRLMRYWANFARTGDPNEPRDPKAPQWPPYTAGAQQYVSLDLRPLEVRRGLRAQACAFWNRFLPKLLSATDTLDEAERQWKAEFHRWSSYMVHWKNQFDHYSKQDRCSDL

The assay deals with acetylcholinesterase (AChE), human recombinant (Homo sapiens, UniProt P22303). Briefly: biochemical. As to conditions: human recombinant enzyme; pre-incubation of the enzyme with inhibitor; read-out: IC50 (AChE, mE, hr).

SMILES strings stand for the structures.

On to `COc1ccc2c3c1O[C@@H]1CC(O)C=CC31CCC(C)C2` (stereo partly shown) [SPH-1310], for which the IC50 was found to be 5.3 µM.

As a reminder, the IC50 is the midpoint of a concentration-inhibition curve.
